# From PubChem BioAssay
# Rows were chosen to be rich in hits. Some 2.1% of all compounds tested hit in one or more screens of this group.
# Yeast UUG start – yeast start codon fidelity modulation; actives 0.13% (n = 350,000); activity score, % at 18.7 µM; S. cerevisiae UUG-firefly luciferase reporter, luminescence/redox ratio;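 active = replicate mean at a twofold rise or more, about +100% in these data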;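 note: firefly luciferase made from a UUG start codon reports start codon fidelity; reporter light over untreated wells divided by growth signal over untreated wells; some hits fall short of that in this replicate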
# ERp5 block – inhibitors of ERp5-driven insulin aggregation, primary screen, biochemical, turbidity, absorbance 650 nm, single point; 0.05% of 350,000 active; Protein disulfide-isomerase A6 (Homo sapiens), Q15084; 90 min; inhibition, % at 9.99 µM;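 active means mean replicate inhibition above about 25%, with every replicate also reaching it, limit read from the data, passing the limit was not always enough; inconclusive means only one of those two criteria met; inactive means neither criterion met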
# NR1D1 modulator – modulators of Rev-erb alpha DNA binding, primary screen, biochemical, FITC-DNA, fluorescence polarization, uHTS; Nuclear receptor subfamily 1 group D member 1 (Homo sapiens), P20393; Rev-erbα–FITC-DNA binding, 90 min; activity, % at 10 µM; 0.79% of 370,000 active; AID 1259318, 2017;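 active means activity above about 14%, limit read from the data; passing the limit was not always enough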;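 further: 0% = DMSO wells with 35 nM protein and 100% = DMSO wells with 750 nM protein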
# PDI inh – inhibitors of human PDI, primary screen, biochemical, turbidity, single point, plate reader | 0.052% of 350,000 active | PDI insulin aggregation turbidity, A650, 90 min | AID 588391, 2011 | Protein disulfide-isomerase (Homo sapiens), P07237 | inhibition, % at 10 µM;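 active means mean inhibition across replicates of 30% or more, whatever share of single replicates reach that level; inconclusive means mean inhibition below 30% while every single replicate reaches 30%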
# SMARCA2 act – SMARCA2 (BRM) function activators, primary screen, cell-based, luminescence, high throughput. 1% of 370,000 active. activation, % at 9.1 µM. MG213 cells, MMTV-luciferase reporter, dexamethasone, overnight; in the data active means activation above about 7.8%;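 further: 0% = vehicle wells and 100% = reference activator wells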
# GSIS activator – GLuc luminescence reporter in INS-1E cells, primary screen for activators of glucose-dependent secretion of insulin; activation, % at 16.6 µM; 0.61% of 370,000 active; AID 743287, 2014; INS-1E GLuc reporter insulin secretion, 2-3 h;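 active means lowest replicate activation of at least 40%, so every replicate reaches that level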;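 further: 0% = median of neutral control wells and 100% = median of IBMX positive control wells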
# * marks the source's active call; other numbers are inactive results; ? = inconclusive; . = no result; + = active, no number; ! = a repeat was not active.
nr	smiles	Yeast UUG start	ERp5 block	NR1D1 modulator
1	CO/N=C/C(C#N)=C/c1ccc(OC)c(OC)c1	.	-4.7	-3.4
2	CCOC(=O)/C(C#N)=C/c1ccc(OC)c(OC)c1	-11.7	.	0.4
3	C[C@H](CO)N1C[C@H](C)[C@@H](CN(C)C(=O)c2ccccc2F)Oc2ncc(Br)cc2C1=O	-4.2	-2.5	.
4	CCCC(=O)Nc1ccc(N2CCN(S(C)(=O)=O)CC2)cc1	.	.	-3.9
5	CN(C)C(=O)c1ccc(-c2ccc(C3[C@@H]4CN(C(=O)C5CCCC5)C[C@H]3N4)cc2)cc1 (stereo partly drawn)	.	10.1	.
6	O=S(=O)(Nc1ccc(-c2ccc3nncn3n2)cc1)c1ccccc1Cl	.	-4.1	-4.5
7	Cc1c(C)c2c(OCC(=O)O)cc3c(c2oc1=O)CCC(C)(C)O3	-6.3	2.9	-2.8
8	Cc1c(C)c2c(OCC(=O)NCC(=O)NCC(=O)O)cc3c(c2oc1=O)CCC(C)(C)O3	15.4	2.1	-2.5
9	C[C@@H]1CN([C@@H](C)CO)C(=O)c2cc(NS(=O)(=O)c3cn(C)cn3)ccc2O[C@@H](C)CCCCO[C@H]1CN(C)Cc1ccncc1	-5.1	-2.5	.
10	Cc1ccc(S(=O)(=O)N(C)C)cc1NC(=O)CSc1nnnn1-c1ccc(O)cc1	9.4	0.8	1.0
11	CN(C)S(=O)(=O)c1ccc(Cl)c(NC(=O)CSc2nnnn2-c2ccc(O)cc2)c1	.	0.7	0.2
12	O=C(O)c1cc(N/N=C/c2ccc(-c3ccccc3)cc2)ccc1Cl	-18.9	-0.1	-5.4

nr	PDI inh	SMARCA2 act	GSIS activator
1	-0.3	1.2	59.6*
2	9.4	-2.9	.
3	.	.	20.8
4	2.9	8.4*	52.5*
5	.	.	-12.0
6	-3.6	3.7	40.5*
7	2.3	-2.8	248.3*
8	1.5	0.7	4.2
9	.	.	-8.7
10	25.8	-4.8	-10.9
11	41.2*	0.6	12.7
12	-4.1	2.5	-4.2

nr	smiles	Yeast UUG start	ERp5 block	NR1D1 modulator
13	CSc1ccc(/C=N/Nc2ccc(Cl)c(C(=O)O)c2)cc1	.	-4.2	-8.7
14	O=[N+]([O-])c1ccccc1S(=O)(=O)Nc1cccc(-c2ccc(N3CCOCC3)nn2)c1	-22.9	-0.8	2.1
15	O=[N+]([O-])c1ccccc1S(=O)(=O)Nc1ccc(-c2ccc(N3CCOCC3)nn2)cc1	-5.6	1.4	-12.8
16	Cc1ccc(-c2n[nH]c(=S)n2/N=C/c2c(C)nn(-c3ccccc3)c2C)cc1	.	.	8.4
17	Cc1ccc(/C=N/n2c(-c3ccccc3)n[nH]c2=S)cc1	-15.5	-5.7	3.2
18	Cc1nn(-c2ccccc2)c(C)c1/C=N/n1c(-c2ccc(C(C)(C)C)cc2)n[nH]c1=S	-16.7	.	-2.7
19	O=[N+]([O-])c1ccc(/C=N/n2c(-c3ccccc3)n[nH]c2=S)cc1	-8.5	1.0	-3.3
20	CCc1n[nH]c(=S)n1/N=C/c1c(C)nn(-c2ccccc2)c1Cl	-21.6	-3.0	4.8
21	Cc1ccccc1-c1n[nH]c(=S)n1/N=C/c1c(C)nn(-c2ccccc2)c1C	-14.3	.	-1.7
22	C[C@@H]1CCCCO[C@@H](CN(C)C(=O)Nc2ccc3c(c2)OCO3)[C@H](C)CN([C@@H](C)CO)C(=O)c2cc(NS(C)(=O)=O)ccc2O1	4.7	-2.7	.
23	COC(=O)c1sccc1NC(=S)N1CCN(C)CC1	.	-4.9	0.9
24	CCN1CCN(C(=S)Nc2ccsc2C(=O)OC)CC1	.	3.5	3.4

nr	PDI inh	SMARCA2 act	GSIS activator
13	5.4	7.9*	4.4
14	-4.7	2.2	28.9
15	-0.2	0.5	71.4*
16	-6.4	6.3	203.0*
17	0.0	-0.9	-6.9
18	4.9	1.8	.
19	3.5	0.4	43.0*
20	0.5	3.9	35.7
21	-5.2	-0.7	90.5*
22	.	.	.
23	7.2	-1.0	41.9*
24	1.0	-2.2	-0.2

nr	smiles	Yeast UUG start	ERp5 block	NR1D1 modulator
25	CC(=O)N(C)C[C@H]1Oc2cc(-c3ccccc3C)ccc2S(=O)(=O)N([C@H](C)CO)C[C@H]1C	9.7	-2.4	.
26	O=c1cc(-c2ccncc2)oc2c1ccc1ccccc12	-13.7	2.6	-3.9
27	COc1ccc(/C=C2\CN(Cc3ccccc3)C/C(=C\c3ccc(OC)c(O)c3)C2=O)cc1O	-5.5	-0.1	1.1
28	CCN1C/C(=C/c2ccc(OC)c(O)c2)C(=O)/C(=C/c2ccc(OC)c(O)c2)C1	.	1.1	7.8
29	O=S(=O)(N[C@@H]1CC[C@H](CCn2cc(Cc3ccccc3)nn2)O[C@H]1CO)c1ccccc1F	.	-0.3	.
30	COc1ccc(S(=O)(=O)N2CCc3ccccc32)cc1C(=O)Nc1cccnc1	-11.0	?	-1.5
31	O=C(Nc1cccnc1)c1cccc(S(=O)(=O)N2CCc3ccccc32)c1	.	1.5	5.1
32	CCOC(=O)C1=C2c3cc(OC)c(OC)cc3CC(C)(C)N2C(=O)C1=O	-11.5	-1.8	3.5
33	C=CCc1ccc(OCCOc2ccc(/C=N/n3cnnc3)cc2OCC)c(OC)c1	-11.1	.	-8.0
34	OCCN1C[C@@H](O)[C@@H](O)C(O)C1CO (stereo partly drawn)	.	.	-0.3
35	O=C(Nc1nonc1NC(=O)c1cccs1)c1cccs1	.	-7.9	-2.6
36	O=C(Nc1ccc(C(F)(F)F)cc1)N1C[C@@H]2N[C@H](C1)C2c1ccc(-c2cccc(F)c2)cc1 (stereo partly drawn)	.	-0.6	.

nr	PDI inh	SMARCA2 act	GSIS activator
25	.	.	6.3
26	-1.1	0.7	46.9*
27	54.5*	5.3	-2.6
28	4.4	1.1	-2.3
29	.	.	-2.6
30	6.7	-1.0	50.1*
31	4.3	-5.0	-24.0
32	-0.3	2.6	44.9*
33	3.8	-2.7	61.3*
34	.	.	.
35	-5.4	-6.8	132.6*
36	.	.	113.5*

# Complete entries from above:
# COc1ccc(/C=C2\CN(Cc3ccccc3)C/C(=C\c3ccc(OC)c(O)c3)C2=O)cc1O as listed: Yeast UUG start = -5.5; ERp5 block = -0.1; NR1D1 modulator = 1.1; PDI inh = 54.5*; SMARCA2 act = 5.3; GSIS activator = -2.6
# O=c1cc(-c2ccncc2)oc2c1ccc1ccccc12 as listed: Yeast UUG start = -13.7; ERp5 block = 2.6; NR1D1 modulator = -3.9; PDI inh = -1.1; SMARCA2 act = 0.7; GSIS activator = 46.9*

# Following part
nr	smiles	Yeast UUG start	ERp5 block	NR1D1 modulator
37	COc1cccc(-c2ccc(C3[C@@H]4CN(C(=O)C5CCCCC5)C[C@H]3N4)cc2)c1 (stereo partly drawn)	.	-5.7	.
38	Cc1cccc(-c2ccc(C3[C@@H]4CN(C(=O)C5CCCCC5)C[C@H]3N4)cc2)c1 (stereo partly drawn)	.	.	.
39	COc1ccc(NC(=O)N2C[C@@H]3N[C@H](C2)C3c2ccc(-c3cccc(F)c3)cc2)cc1 (stereo partly drawn)	.	3.6	.
40	Cc1ccc(-c2ccc(C3[C@@H]4CN(C(=O)Nc5ccc(C(F)(F)F)cc5)C[C@H]3N4)cc2)cc1 (stereo partly drawn)	.	17.3	.
41	Cc1cc(C(F)F)n2ncc(C(=O)NCc3ccc(F)cc3)c2n1	.	-2.7	-2.6
42	Cc1cc(C(F)F)n2ncc(C(=O)NCc3ccccc3F)c2n1	.	6.2	0.3
43	C[C@H](CO)N1C[C@H](C)[C@@H](CN(C)C(=O)Nc2ccc3c(c2)OCO3)Oc2ccc(N(C)C)cc2C1=O	6.1	2.6	.
44	O=C1CSC(c2ccccn2)N1c1ccc(Br)cc1 (stereo not drawn)	.	6.6	-2.7
45	O=C(Nc1nc(-c2ccc([N+](=O)[O-])cc2)cs1)C1=COCCO1	8.2	-0.6	-7.3
46	O=C(Nc1nc(-c2ccc(-c3ccccc3)cc2)cs1)C1=COCCO1	.	.	-5.4

nr	PDI inh	SMARCA2 act	GSIS activator
37	.	.	-11.6
38	.	.	213.4*!
39	.	.	-5.6
40	.	.	+
41	-2.6	-3.4	44.1*
42	2.6	-0.1	1.7
43	.	.	1.9
44	3.8	3.9	42.6*
45	-10.9	2.5	.
46	14.3	-0.3	84.5*

# Structures shown so far containing bromine:
nr	smiles	Yeast UUG start	ERp5 block	NR1D1 modulator
3	C[C@H](CO)N1C[C@H](C)[C@@H](CN(C)C(=O)c2ccccc2F)Oc2ncc(Br)cc2C1=O	-4.2	-2.5	.
44	O=C1CSC(c2ccccn2)N1c1ccc(Br)cc1 (stereo not drawn)	.	6.6	-2.7

nr	PDI inh	SMARCA2 act	GSIS activator
3	.	.	20.8
44	3.8	3.9	42.6*
